The text below walks through data of ChEMBL document CHEMBL1821707, “Improved synthesis of chiral pyrrolidine inhibitors and their binding properties to neuronal nitric oxide synthase” (J Med Chem, 2011).

As a reminder, the Ki is a dissociation constant, usually derived from enzyme kinetics or from competition with a known ligand.

Structures are written as SMILES.

Assay [1] deals with T1, Nitric oxide synthase, inducible (Mus musculus, UniProt P29477).
T1 sequence (P29477 whole entry): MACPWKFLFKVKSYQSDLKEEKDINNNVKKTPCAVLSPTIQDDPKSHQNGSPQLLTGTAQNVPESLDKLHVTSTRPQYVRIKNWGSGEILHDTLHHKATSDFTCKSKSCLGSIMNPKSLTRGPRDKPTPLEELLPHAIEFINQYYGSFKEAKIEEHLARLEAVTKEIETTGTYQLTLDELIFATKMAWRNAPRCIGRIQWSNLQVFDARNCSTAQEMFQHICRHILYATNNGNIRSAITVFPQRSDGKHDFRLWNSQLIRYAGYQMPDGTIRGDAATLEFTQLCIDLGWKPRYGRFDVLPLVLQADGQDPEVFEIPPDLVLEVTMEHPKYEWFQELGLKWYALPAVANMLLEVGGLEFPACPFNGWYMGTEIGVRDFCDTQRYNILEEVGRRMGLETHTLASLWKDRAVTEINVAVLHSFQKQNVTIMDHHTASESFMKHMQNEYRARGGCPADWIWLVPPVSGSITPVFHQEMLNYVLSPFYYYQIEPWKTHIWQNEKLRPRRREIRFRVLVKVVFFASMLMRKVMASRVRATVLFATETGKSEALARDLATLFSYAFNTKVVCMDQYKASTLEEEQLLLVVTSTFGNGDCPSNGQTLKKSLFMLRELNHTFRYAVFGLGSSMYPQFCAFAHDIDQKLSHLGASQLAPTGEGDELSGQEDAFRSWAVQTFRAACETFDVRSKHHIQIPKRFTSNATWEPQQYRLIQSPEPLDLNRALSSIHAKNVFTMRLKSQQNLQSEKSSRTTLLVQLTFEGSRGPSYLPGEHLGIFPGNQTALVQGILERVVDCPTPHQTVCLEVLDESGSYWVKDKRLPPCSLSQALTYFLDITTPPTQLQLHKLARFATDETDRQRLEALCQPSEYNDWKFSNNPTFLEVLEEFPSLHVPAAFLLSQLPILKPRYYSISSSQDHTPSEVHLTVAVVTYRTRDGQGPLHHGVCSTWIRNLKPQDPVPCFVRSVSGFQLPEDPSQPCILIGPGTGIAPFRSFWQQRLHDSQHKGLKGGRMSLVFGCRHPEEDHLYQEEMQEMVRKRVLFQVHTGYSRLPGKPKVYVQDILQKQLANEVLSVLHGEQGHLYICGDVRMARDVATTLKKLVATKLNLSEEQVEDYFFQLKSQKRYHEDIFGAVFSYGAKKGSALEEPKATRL
Briefly: Inhibition of mouse iNOS expressed in Escherichia coli assessed as reduction in formation of nitric oxide by hemoglobin capture assay. Summed up: (§1)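 Ki was calculated from directly measured IC50 values, with each IC50 measured at least in duplicate and standard deviations of ±10%.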

A further assay has as its target T2, Nitric oxide synthase 3 (Bos taurus, UniProt P29473).
T2 sequence (P29473 whole entry): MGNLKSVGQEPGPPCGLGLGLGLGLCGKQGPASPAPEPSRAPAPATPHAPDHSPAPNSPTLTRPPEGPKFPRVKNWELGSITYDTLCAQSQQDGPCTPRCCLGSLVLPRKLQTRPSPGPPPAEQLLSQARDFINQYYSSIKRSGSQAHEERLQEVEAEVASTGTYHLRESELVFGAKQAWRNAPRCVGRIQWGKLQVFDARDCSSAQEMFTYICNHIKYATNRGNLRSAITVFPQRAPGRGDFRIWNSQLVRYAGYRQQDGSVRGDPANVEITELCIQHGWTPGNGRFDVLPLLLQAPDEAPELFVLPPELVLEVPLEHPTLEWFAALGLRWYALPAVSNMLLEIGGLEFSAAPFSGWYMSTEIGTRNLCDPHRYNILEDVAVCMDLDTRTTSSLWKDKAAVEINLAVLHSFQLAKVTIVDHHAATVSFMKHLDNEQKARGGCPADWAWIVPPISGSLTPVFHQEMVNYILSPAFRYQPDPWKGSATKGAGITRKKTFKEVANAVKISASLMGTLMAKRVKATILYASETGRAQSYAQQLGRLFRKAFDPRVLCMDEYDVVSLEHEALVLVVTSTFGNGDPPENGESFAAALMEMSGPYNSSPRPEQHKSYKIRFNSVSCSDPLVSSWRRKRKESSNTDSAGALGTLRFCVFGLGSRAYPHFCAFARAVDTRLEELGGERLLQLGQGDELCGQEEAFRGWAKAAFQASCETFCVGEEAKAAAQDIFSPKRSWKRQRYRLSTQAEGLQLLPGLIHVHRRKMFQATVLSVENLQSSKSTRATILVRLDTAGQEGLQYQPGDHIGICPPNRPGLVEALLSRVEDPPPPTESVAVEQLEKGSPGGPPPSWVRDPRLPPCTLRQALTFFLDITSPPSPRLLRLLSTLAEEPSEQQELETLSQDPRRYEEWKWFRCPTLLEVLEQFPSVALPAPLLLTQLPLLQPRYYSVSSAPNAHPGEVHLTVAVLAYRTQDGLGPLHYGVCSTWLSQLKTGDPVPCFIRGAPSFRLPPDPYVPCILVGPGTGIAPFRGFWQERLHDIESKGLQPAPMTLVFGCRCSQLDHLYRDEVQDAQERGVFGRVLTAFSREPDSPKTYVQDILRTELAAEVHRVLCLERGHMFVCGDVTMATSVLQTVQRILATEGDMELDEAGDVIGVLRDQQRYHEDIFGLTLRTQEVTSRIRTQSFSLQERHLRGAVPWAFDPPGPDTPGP
Briefly: Inhibition of bovine eNOS expressed in Escherichia coli assessed as reduction in formation of nitric oxide by hemoglobin capture assay. Summed up: as §1

`Cc1cc(N)nc(C[C@@H]2CNC[C@@H]2OCCNCC(F)(F)c2cc(F)cc(Cl)c2)c1`: the inhibitory constant (Ki) (in assay [1]; at Nitric oxide synthase 3) was 17 µM throughout.
